Data: patent US20040146519A1, “Inducing cellular immune responses to carcinoembryonic antigen using peptide and nucleic acid compositions” (priority 2002, published 2004)

Tests used:
Details in all cases: remark: other sources report otherwise
HLA-A*1101 (human) = assay: competition with 125I probe peptide for purified HLA
HLA-A*3301 (human) = assay: as above
HLA-A*6801 (human) = assay: as above
HLA-B*5101 (human) = assay: inhibition of 125I probe peptide, purified HLA
HLA-B*5301 (human) = assay: inhibition of 125I probe peptide, purified HLA
HLA-B*0702 (human) = assay: inhibition of 125I probe peptide, purified HLA
HLA-B*3501 (human) = assay: inhibition of 125I probe peptide, purified HLA
HLA-A*0101 (human) = assay: inhibition of 125I probe peptide, purified HLA

## RVLTLFNVTR [CEA.554.V2]
HLA-A*1101 (human)
  IC50: 94 nM
HLA-A*3301 (human)
  IC50: 7630 nM
HLA-A*6801 (human)
  IC50: 42 nM

## RTLTLFNVTR [CEA.554]
HLA-A*3301 (human)
  IC50: 1610 nM

## IPWQRLLLTA [CEA.13, 10 AA]
HLA-B*5101 (human)
  IC50: 2120 nM
HLA-B*5301 (human)
  IC50: 2660 nM

## IPWQRLLLTI [CEA.13.I10]
HLA-B*5301 (human)
  IC50: 291 nM

## LPQHLFGYSI [CEA.58.I10]
HLA-B*5101 (human)
  IC50: 262 nM

## YPNASLLI [CEA.102]
HLA-B*0702 (human)
  IC50: 196 nM
HLA-B*3501 (human)
  IC50: 514 nM
HLA-B*5101 (human)
  IC50: 8.1 nM

## PTISPSYTYY [CEA.418, 10 AA]
HLA-A*0101 (human)
  IC50: 325 nM

## HSASNPSPQY [CEA.616]
HLA-A*0101 (human)
  IC50: 74 nM
